Measured values taken from US10144738B2, “Pyrazolo[1,5-A]PYRAZIN-4-YL derivatives” (Pfizer Inc., priority 2016, dated 2018).

Sequences of proteins named here, by UniProt entry; tags and fusion partners are left off. Residues count along the entry.
UniProt O60674, 849-1124: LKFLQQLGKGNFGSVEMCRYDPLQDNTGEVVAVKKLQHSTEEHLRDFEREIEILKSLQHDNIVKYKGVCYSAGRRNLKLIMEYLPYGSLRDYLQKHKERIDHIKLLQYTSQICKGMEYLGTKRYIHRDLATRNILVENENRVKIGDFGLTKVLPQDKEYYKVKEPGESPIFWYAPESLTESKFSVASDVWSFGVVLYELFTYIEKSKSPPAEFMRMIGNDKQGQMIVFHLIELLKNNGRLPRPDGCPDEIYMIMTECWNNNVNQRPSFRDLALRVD
UniProt P29597, 897-1176: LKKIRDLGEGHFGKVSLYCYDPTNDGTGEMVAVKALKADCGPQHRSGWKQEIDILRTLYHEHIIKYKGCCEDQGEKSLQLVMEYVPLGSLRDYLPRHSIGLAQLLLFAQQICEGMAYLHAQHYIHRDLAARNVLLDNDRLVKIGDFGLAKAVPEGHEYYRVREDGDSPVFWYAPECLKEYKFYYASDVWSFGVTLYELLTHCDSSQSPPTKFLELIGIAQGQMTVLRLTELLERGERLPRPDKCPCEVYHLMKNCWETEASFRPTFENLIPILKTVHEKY
UniProt P23458, 875-1153: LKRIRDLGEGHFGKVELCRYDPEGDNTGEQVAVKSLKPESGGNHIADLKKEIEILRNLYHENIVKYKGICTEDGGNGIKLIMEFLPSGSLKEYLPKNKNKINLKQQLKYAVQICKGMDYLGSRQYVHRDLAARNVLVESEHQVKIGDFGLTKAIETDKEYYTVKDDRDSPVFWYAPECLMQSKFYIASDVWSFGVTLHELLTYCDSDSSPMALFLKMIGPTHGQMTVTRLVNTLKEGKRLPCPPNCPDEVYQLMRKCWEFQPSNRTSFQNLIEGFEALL

Tests used:
Assay type in all cases: biochemical
Conditions in all cases: recombinant human kinase domain, Caliper mobility shift
JAK2 = JAK2 (Homo sapiens (Human), UniProt O60674); assay: JAK Caliper enzyme assay at 1 mM ATP (JAK2)
TYK2 = TYK2 (Homo sapiens (Human), UniProt P29597); assay: JAK Caliper enzyme assay at 1 mM ATP (TYK2)
JAK1 = JAK1 (Homo sapiens (Human), UniProt P23458); assay: JAK Caliper enzyme assay at 1 mM ATP (JAK1)

IC50 (TYK2) | Compound | further results
– | Cn1cc(-c2cn3nccc3c(-c3cnn([C@]4(CC#N)C[C@H](O)C4)c3)n2)cn1 [Example 13, 2-((1s,3r)-3-Hydroxy-1-(4-(6-(1-methyl-1H-pyrazol-4-yl)pyrazolo[1,5-a]pyrazin-4-yl)-1H-pyrazol-1-yl)cyclobutyl)acetonitrile] | IC50 (JAK2): 0.487 µM
0.022 µM | CO[C@H]1C[C@](CC#N)(n2cc(-c3nc(-c4cnn(C)c4)cn4nccc34)cn2)C1 [Example 15, 2-((1r,3s)-3-Methoxy-1-(4-(6-(1-methyl-1H-pyrazol-4-yl)pyrazolo[1,5-a]pyrazin-4-yl)-1H-pyrazol-1-yl)cyclobutyl)acetonitrile] | –
– | N#CC[C@]1(n2cc(-c3nc(-c4cc(CO)on4)cn4nccc34)cn2)C[C@@H](C#N)C1 [Example 1, (1s,3s)-3-(Cyanomethyl)-3-(4-(6-(5-(hydroxymethyl)isoxazol-3-yl)pyrazolo[1,5-a]pyrazin-4-yl)-1H-pyrazol-1-yl)cyclobutane-1-carbonitrile] | IC50 (JAK1): 0.291 µM
0.016 µM | CO[C@H]1C[C@@](CC#N)(n2cc(-c3nc(-c4cnn(C)c4)cn4nccc34)cn2)C1 [Example 16, 2-((1s,3r)-3-Methoxy-1-(4-(6-(1-methyl-1H-pyrazol-4-yl)pyrazolo[1,5-a]pyrazin-4-yl)-1H-pyrazol-1-yl)cyclobutyl)acetonitrile] | –
